Tested on: primary leukemia cells from patients
Conditions: decitabine 0.5 μM added 2×/week

Nc1ncn([C@H]2C[C@H](O)[C@@H](CO)O2)c(=O)n1 [Decitabine, 5-aza-2′-deoxycytidine]
DNA damage or immediate apoptosis: did not cause DNA damage or immediate apoptosis
